We go through two compounds from ChEMBL document CHEMBL5727136, “Inhibitors of RPN11” (2018).

This assay in a line: Biochemical Assay: In brief, this Rpn11 bioassay employs a fluorescent polarization readout based on the ability of the 26S proteasome to cleave the protein substrate including four tandem ubiquitin proteins fused to a peptide having a unique cysteine labeled with a fluorophore. Cleavage of this substrate by Rpn11 at the junction between the fourth ubiquitin and the peptide, releases the low molecular weight fluorescent peptide. Accordingly, inhibition of fluorescence correlates with inhibition of Rpn11. Inhibition is reported as the half maximal inhibitory concentration (IC50) for the candidate compound.The catalytic JAB1/MPN/Mov34 metalloenzyme (JAMM) motif of Rpn11 is found in 7 different human proteins including the Csn5 subunit of the COP9 signalosome, AMSH, AMSH-LP, the BRCC36 subunit of BRISC, MPND, and MYSM1. All of these enzymes cleave the isopeptide linkage that joins ubiquitin (or the ubiquitin-like protein Nedd8 in the case of Csn5) to a second molecule of ubiquitin or to a substrate. The conserved JAMM domain has the consensus sequence EXnHS/THX7SXXD, in which the histidine (His) and aspartic acid (Asp) residues bind the Zn2+ ion and the fourth coordination site is occupied by a water molecule that is engaged in hydrogen bonding with a conserved glutamic acid (Glu). […].

Broadly, the IC50 is the concentration at which inhibition is half-maximal. Regarding `O=C(NCCc1nccs1)c1cnc2c(S)cccc2c1`, the IC50 came out at 4.5 µM. `CNC(=O)c1cnc2c(S)cccc2c1` had an IC50 of 1.6 µM.
